Measurements reported in US20180207138A1, “METHODS FOR THE TREATMENT OF TREMORS BY POSITIVE MODULATION OF SK CHANNELS” (Cadent Therapeutics, Inc., priority 2017, published 2018).

Target: SK2 channel (Homo sapiens, UniProt Q9H2S1)
Settings: concentration that increases the basal current by 100%

Measured SK2 SC100	SMILES
0.6 µM	Cc1cc(C)n(-c2nc(NC3CCC(F)(F)CC3)cc(N3CCOCC3)n2)n1 [Compound 1]
0.5 µM	Cc1ccn(-c2nc(NC3CCC(F)(F)CC3)cc(N3CCOCC3)n2)n1 [Compound 2]
